# Experimental data from patent publication EP4825842A1, “DIVALENT BET DECOMPOSITION AGENT AND TARGETING MOLECULE-DRUG COMPLEX” (dated 2026).
# Key:
# HIP-009 cells = assay: Test Example 2: in vitro cell survival inhibitory effect of compound using nerve cell (HIP-009 cell); conditions: for Nerve selectivity: calculated from HIP-009 IC50 and SU-DHL-4 IC50; for Degree of improvement (vs. comparative compound): neural selectivity of each compound / neural selectivity of the comparative compound; for pIC50: read-out: HIP-009 IC50, 50% rate of inhibition of cell survival, differentiated nerve cells, 7 days, total area occupied by the cells
# Method: HIP-009 cells (Code No. 23002-009, Hippocampal Neural Stem Cells, Cosmo Bio Co., Ltd.) were cultured in Neural Stem Cell Growth Media (Code No. 21001-250, Cosmo Bio Co., Ltd.) at 37°C for 2 to 4 weeks using a CO2 incubator (95% air, 5% CO2) until confluency with half-volume media exchanges once or twice per week, then allowed to differentiate in Neuro Transition Media (Code No. 21003-250, Cosmo Bio Co., Ltd.), and seeded at 5000 to 10000 cells/0.04 mL/well to a 384-well plate (Code No. 781091, Greiner bio-one) using Neural Differentiation media (Code No. 210040250, Cosmo Bio Co., Ltd.). Neurites were elongated with half-volume media exchanges once or twice per week. Each medium was supplemented with supplements as described in the instruction and used after being allowed to pass through a 0.22 µm filter. The cells were used in evaluation 3 weeks or later after seeding to the 384-well plate by confirming the elongated neurites.
# In order to detach the cells, Trypsin (Code No. 41004-100, Cosmo Bio Co., Ltd.) was added thereto, and the mixture was incubated at 37°C for 3 to 10 minutes using a CO2 incubator (95% air, 5% CO2). Cell detachment reaction was stopped by the addition of Trypsin Inhibitor (Code No. 41005-100, Cosmo Bio Co., Ltd.) in an equal amount.
# The 384-well plate was subjected to the following operation before cell seeding. A poly(ethylenimine) solution (Code No. 03880-100ML, Sigma-Aldrich Co., LLC) was diluted with 1 × Borate Buffer (dilution of Pierce 20 × Borate Buffer (Code No. 28341, Thermo Fisher Scientific Inc.)) to prepare a 0.07% poly(ethylenimine) solution, 0.02 mL of which was added to each well and incubated at 37°C for 1 hour. Then, the plate was washed twice with 0.1 mL of PBS and once with 0.1 mL of Otsuka distilled water and left standing overnight for drying. 0.02 mL of Laminin from Engelbreth-Holm-Swarm murine sarcoma basement membrane (Code No. L2020-1MG, Sigma-Aldrich Co., LLC) diluted into 0.0033 mg/mL with PBS was added to each well and incubated at 37°C for 1 hour. Laminin was sucked out, then 0.1 mL of Otsuka distilled water was added to the plate until just before seeding, and the plate was left standing.
# The cells of day 0 were photographed using Cell3iMager duos (SCREEN Holdings Co., Ltd.) before addition of a test compound, and the total area occupied by the cells was calculated. Nine serial dilutions of the test compound (10000 mmol/L solution in DMSO) were prepared at a dilution factor of √10 so as to attain 5 times the final concentration using the Neural Differentiation Media, and added in a volume of 1/5 to each well. The final concentration of DMSO was set to 0.1 vol% for this preparation. The cells thus supplemented with the test compound were cultured at 37°C for 7 days in a CO2 incubator (95% air, 5% CO2). The cells of day 7 were photographed using Cell3iMager duos, and the total area occupied by the cells was calculated. […] Rate of inhibition of cell survival(%) = 100−A/B × 100 [formula] • A: Total area of the cells of day 7 • B: Total area of the cells of day 0
# The results were as shown in the column "HIP-009 IC50 (nmol/L)" in Table 33 below. The selectivity of each compound for nerve cells was calculated according to the following formula using the results thus obtained and the results of Test Example 1. [formula]
# Degree of improvement (vs. the comparative compound) = Neural selectivity of each compound / Neural selectivity of the comparative compound
# SU-DHL-4 cells = assay: Test Example 1: in vitro cell survival inhibitory effect of compound using SU-DHL-4 cell line; conditions: read-out: SU-DHL-4 IC50; 50% rate of inhibition of cell survival; 72 hours; Cell Counting Kit-8
# Method: SU-DHL-4 cells (Code No. ACC 495, Deutsche Sammlung von Mikroorga nismen und Zellkulturen GmbH; DSMZ) were cultured in RPMI1640 medium (Code No. 11875-093, Thermo Fisher Scientific Inc.) supplemented with heat-inactivated fetal bovine serum (FBS: Code No. 10099-148, Thermo Fisher Scientific Inc.) in an amount that attained a final concentration of 10 vol% and a penicillin/streptomycin solution (PS: Code No. 15140-122, Thermo Fisher Scientific Inc.) in an amount that attained a final concentration of 1 vol% at 37°C using a CO2 incubator (95% air, 5% CO2). The cells were passaged at intervals of twice per week so as to maintain a cell density of 1 × 10 ^6 cells/mL or less in a volume of 20 to 40 mL.
# The cultured SU-DHL-4 cells were seeded at 2000 cells/well to a transparent 384-well plate (Code No. 781182, Greiner bio-one). The cells thus seeded were precultured at 37°C for 18 to 25 hours in a CO2 incubator. Subsequently, a 1, 0.1, or 0.01 mmol/L solution of a test compound in DMSO was prepared, and nine serial dilutions were prepared at a dilution factor of √10 so as to attain 200 times the final concentration using the RPMI1640 medium containing FBS and PS, and added in a volume of 1/200 to each well. The final concentration of DMSO was set to 0.1 vol% for this preparation. The cells thus supplemented with the test compound were cultured at 37°C for 72 hours in a CO2 incubator. Subsequently, 0.020 mL of a solution of Cell Counting Kit-8 (Code No. CK04, Dojindo Laboratories) diluted 2-fold or 4-fold with phosphate-buffered saline (PBS) was added to each well. Color reaction was performed at 37°C for 2 to 3 hours in a CO2 incubator, followed by absorbance measurement at a wavelength of 450 nm using SpectraMax 340PC (Molecular Devices, LLC).
Structure (SMILES),Nerve selectivity (HIP-009 cells),Degree of improvement (vs. comparative compound) (HIP-009 cells),pIC50 (HIP-009 cells),pIC50 (SU-DHL-4 cells)
CCC(=O)N1c2ccccc2[C@H](Nc2ccc(NC(=O)CNC(=O)Nc3ccc(OCCN4CCN(C(C)=O)CC4)cc3)cc2)C[C@@H]1C,6300,48,6.32,10.12
CCC(=O)N1c2ccccc2[C@H](Nc2ccc(NC(=O)CNC(=O)Nc3ccc(OCCN4CCCN(C)C(=O)C4)cc3)cc2)C[C@@H]1C,8700,67,5.60,9.54
CCC(=O)N1c2ccccc2[C@H](Nc2ccc(NC(=O)CNC(=O)Nc3ccc(OCCN4CCN(C(C)=O)C[C@@H]4C)c(F)c3)cc2)C[C@@H]1C,2500,–,7.16,10.55
CCC(=O)N1c2ccccc2[C@H](Nc2ccc(NC(=O)CNC(=O)Nc3ccc(/C=C/CN4CCN(C)C(=O)[C@H]4C)cc3)cc2)C[C@@H]1C,1000,–,7.30,10.31
CCC(=O)N1c2ccccc2[C@H](Nc2ccc(NC(=O)CNC(=O)Nc3ccc(CCCN4CCN(C)C(=O)[C@H]4C)cc3F)cc2)C[C@@H]1C,1700,–,6.70,9.89
CCC(=O)N1c2ccccc2[C@H](Nc2ccc(NC(=O)CNC(=O)Nc3ccc(OCCN4CCN(C(C)=O)C(C)(C)C4)cc3)cc2)C[C@@H]1C,1400,11,5.60,8.74
CCC(=O)N1c2ccccc2[C@H](Nc2ccc(NC(=O)CNC(=O)Nc3ccc(OCCc4ccc(C)nc4)cc3)cc2)C[C@@H]1C,1200,–,6.70,9.77
CCC(=O)N1c2ccc(Cl)cc2[C@H](Nc2ccc(NC(=O)CNC(=O)Nc3ccc(OCCN4CCN(C)C(=O)[C@H]4C)cc3)cc2)C[C@@H]1C (relative stereo),710,–,7.34,10.19
CCC(=O)N1c2ccccc2[C@H](Nc2ccc(NC(=O)CNC(=O)Nc3ccc(OCCN4CC(=O)N(C)[C@H](C)C4)cc3)cc2)C[C@@H]1C,2000,15,6.08,9.38
CCC(=O)N1c2ccccc2[C@H](Nc2ccc(NC(=O)CNC(=O)Nc3ccc(OCCN4CCN5C(=O)CC[C@H]5C4)cc3)cc2)C[C@@H]1C,9600,–,6.49,10.48
CCC(=O)N1c2ccccc2[C@H](Nc2ccc(NC(=O)CNC(=O)Nc3ccc(OCCN4CCN(C(C)=O)CC4)cc3F)cc2)C[C@@H]1C,2000,④ 45,6.70,10.00
CCC(=O)N1c2ccccc2[C@H](Nc2ccc(NC(=O)CNC(=O)Nc3ccc(CCCN4CCN(C)C(=O)[C@H]4C)cc3)cc2)C[C@@H]1C,1000,–,6.57,9.59
CCC(=O)N1c2ccccc2[C@H](Nc2ccc(NC(=O)CNC(=O)Nc3ccc(OCCN4CCN(C(C)=O)CC4(C)C)cc3)cc2)C[C@@H]1C,1100,8.5,5.68,8.70
CCC(=O)N1c2ccccc2[C@H](Nc2ccc(NC(=O)CNC(=O)Nc3ccc(OCCN4CCC(=O)N(C)CC4)c(F)c3)cc2)C[C@@H]1C,1000,–,7.80,10.80
CCC(=O)N1c2ccccc2[C@H](Nc2ccc(NC(=O)CNC(=O)Nc3ccc(OCCN4C[C@@H](C)N(C(C)=O)[C@@H](C)C4)cc3)cc2)C[C@@H]1C,6300,48,6.49,10.30
CCC(=O)N1c2ccccc2[C@H](Nc2ccc(NC(=O)CNC(=O)Nc3ccc(OCCN4CC(=O)N(C)C[C@H]4C)cc3)cc2)C[C@@H]1C,2300,18,5.68,9.03
CCC(=O)N1c2ccc(F)cc2[C@H](Nc2ccc(NC(=O)CNC(=O)Nc3ccc(OCCN4CCN(C)C(=O)[C@H]4C)cc3)cc2)C[C@@H]1C (relative stereo),5800,–,6.72,10.49
CCC(=O)N1c2ccccc2[C@H](Nc2ccc(NC(=O)CNC(=O)Nc3ccc(OCCN4CCN5C(=O)CC[C@H]5C4)cc3F)cc2)C[C@@H]1C,2200,–,7.15,10.48
CCC(=O)N1c2ccccc2[C@H](Nc2ccc(NC(=O)CNC(=O)Nc3ccc(OCCN4CCN(C(C)=O)CC4)c(F)c3)cc2)C[C@@H]1C,2800,–,7.10,10.55
CCC(=O)N1c2ccccc2[C@H](Nc2ccc(NC(=O)CNC(=O)Nc3ccc(CCCN4CCC(=O)N(C)CC4)cc3)cc2)C[C@@H]1C,600,–,6.92,9.68
CCC(=O)N1c2ccccc2[C@H](Nc2ccc(NC(=O)CNC(=O)Nc3ccc(OCCN4CC(=O)N(C)[C@@H](C)C4)cc3)cc2)C[C@@H]1C,660,5.1,5.64,8.47
CCC(=O)N1c2ccccc2[C@H](Nc2ccc(NC(=O)CNC(=O)Nc3ccc(OCCN4CCN5C(=O)CC[C@H]5C4)c(F)c3)cc2)C[C@@H]1C,2700,–,7.49,10.92
CCC(=O)N1c2ccccc2[C@H](Nc2ccc(NC(=O)CNC(=O)Nc3ccc(NC(=O)CN4CCN5C(=O)CC[C@H]5C4)cc3)cc2)C[C@@H]1C,560,–,6.80,9.55
CCC(=O)N1c2ccccc2[C@H](Nc2ccc(NC(=O)CNC(=O)Nc3ccc(OCCN4[C@H](C)CN(C(C)=O)C[C@H]4C)cc3)cc2)C[C@@H]1C,1600,12,6.01,9.21
CCC(=O)N1c2ccccc2[C@H](Nc2ccc(NC(=O)CNC(=O)Nc3ccc(OCCN4CCN(C(C)=O)[C@H](CO)C4)cc3)cc2)C[C@@H]1C,4600,35,5.38,9.04
CCC(=O)N1c2ccccc2[C@H](Nc2ccc(NC(=O)CNC(=O)Nc3ccc(NC(=O)CN4CCC(=O)N(C)CC4)cc3)cc2)C[C@@H]1C,910,–,6.55,9.51

# pIC50: −log10 of the molar value.
